The assay deals with cyno serum albumin (cyno). Nature of the assay: SPR, albumin on chip, 1:1 interaction model. A general note: Surface plasmon resonance follows binding to a sensor surface in real time, without labels.

One may read the koff as the first-order rate constant of dissociation. Higher therefore signals a short-lived complex.

ALB11 (VHH): the off-rate constant (koff) came out at 0.0017 s⁻¹.

The values above are taken from patent publication US20170247475A1.
